# In patent publication US20040106773A1 (priority 2003, published 2004):
# Sequences of proteins named here, by UniProt entry; tags and fusion partners are left off. Residues count along the entry.
# UniProt P70555, 25-546: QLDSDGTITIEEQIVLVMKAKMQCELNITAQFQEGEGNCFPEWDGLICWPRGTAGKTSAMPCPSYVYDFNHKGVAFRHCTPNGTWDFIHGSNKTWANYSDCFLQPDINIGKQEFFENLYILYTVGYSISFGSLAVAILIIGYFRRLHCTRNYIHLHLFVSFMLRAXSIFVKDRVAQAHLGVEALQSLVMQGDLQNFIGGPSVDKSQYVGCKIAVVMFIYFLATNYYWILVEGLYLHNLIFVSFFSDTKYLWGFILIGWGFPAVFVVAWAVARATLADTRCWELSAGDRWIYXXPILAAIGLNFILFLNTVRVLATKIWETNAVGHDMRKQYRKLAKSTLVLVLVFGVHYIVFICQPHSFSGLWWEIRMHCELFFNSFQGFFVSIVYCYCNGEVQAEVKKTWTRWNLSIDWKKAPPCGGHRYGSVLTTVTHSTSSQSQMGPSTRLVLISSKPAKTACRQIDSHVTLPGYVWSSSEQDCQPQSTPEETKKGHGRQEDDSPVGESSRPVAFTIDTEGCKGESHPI
# Tests used:
# rat PTH2R [1] = molecular target: T1, rat PTH2R (Rattus norvegicus, UniProt P70555); assay: cAMP SPA assay for PTH2R activation, rat PTH2R; type: cell-based; details: HEK293 cells stably expressing rat PTH2R; mean±S.D., n=3-7
# T1 construct: V5-His (appears only in the vector name); expressed in transfected cells
# Excerpt: HEK293 cells were transfected with rat and human PTH2R and cell lines that stably express the receptors were established and evaluated. One cell line was selected for each rat and human PTH2R and used for all the functional assays. Specifically, HEK293 cells were transfected with pCDNA3.1/V5-His-RatPTH2R plasmid DNA and pCDNA3.1-E/Uni-lacZ-HumanPTH2R plasmid DNA using FuGENE 6 transfection reagent (Roche Molecular Biochemicals). Three days after transfection, cells were put under selection with 800 μg/ml geneticin (G418, Gibco BRL). After three weeks of selection, single colonies were cloned using cloning cylinders. Cloned colonies were scaled up to T25 flasks. More than 10 cell lines for each plasmid were tested for function in the cAMP SPA assay.
# HEK293PTH2R cells were seeded in a 96-well poly-D-lysine coated plate at 100,000 cells per well and cultured overnight. After washing with 200 μl of PBS and treating with 100 μl of 300 nM IBMX in assay medium (MEM without phenol red and FBS) at 37° C. for 10 min. The assay medium was then aspirated and the cells were washed with PBS. The cellular of cAMP was measured using cAMP SPA Direct Screening (Amersham/Pharmacia RPA559). Each concentration of ligand was repeated as triplicate.
# rat PTH2R [2] = molecular target: rat PTH2R (rat, UniProt P70555 25-546); assay: cell-based or functional assay
Molecule,"logEC50, increase in cAMP (rat PTH2R [1])","logEC50, cAMP increase (cAMP SPA assay) in HEK293 cells stably expressing rat PTH2R (rat PTH2R [2])"
human PTH(1-34),−9.3±0.2,–
rat PTH(1-34),−10.3±0.5,–
"AVSEIQLMHNLGKHLASVERMQWLRKKLQDVHNF (peptide, UniProt P04089 32-65, looked up, not fully specified) [rat PTH(1-34)]",–,-10.3

# Ends that are not written are not given here.
